Experimental data from ChEMBL document CHEMBL3885861, “Open TG-GATES”.

How the values were obtained:
Rattus norvegicus [1] = organism: Rattus norvegicus; assay: Open TG-GATES - Regimen: Daily Repeat; type: toxicity, organism-based, Sprague-Dawley; parameters: regimen Daily Repeat, gender Male, age 6 weeks; details: in vivo, po, route gavage
Rattus norvegicus [2] = organism: Rattus norvegicus; assay: Open TG-GATES - Regimen: Single; type: toxicity, organism-based, Sprague-Dawley; parameters: regimen Single, gender Male, age 6 weeks; details: in vivo, po, route gavage
[3] = 0 mg/kg, 72 h, tissue Plasma, dose level Control, time 3 day
[4] = 0 mg/kg, […], tissue Plasma, dose level Control, time 7 day
[5] = 0 mg/kg, […], tissue Plasma, dose level Control, time 14 day
[6] = 0 mg/kg, […], tissue Plasma, dose level Control, time 28 day
[7] = 10 mg/kg, 72 h, tissue Plasma, dose level Low, time 3 day
[8] = 10 mg/kg, […], tissue Plasma, dose level Low, time 7 day
[9] = 10 mg/kg, […], tissue Plasma, dose level Low, time 14 day
[10] = 10 mg/kg, […], tissue Plasma, dose level Low, time 28 day
[11] = 30 mg/kg, 72 h, tissue Plasma, dose level Middle, time 3 day
[12] = 30 mg/kg, […], tissue Plasma, dose level Middle, time 7 day
[13] = 30 mg/kg, […], tissue Plasma, dose level Middle, time 14 day
[14] = 30 mg/kg, […], tissue Plasma, dose level Middle, time 28 day
[15] = 100 mg/kg, 72 h, tissue Plasma, dose level High, time 3 day
[16] = 100 mg/kg, […], tissue Plasma, dose level High, time 7 day
[17] = 100 mg/kg, […], tissue Plasma, dose level High, time 14 day
[18] = 100 mg/kg, […], tissue Plasma, dose level High, time 28 day
[19] = 0 mg/kg, 3 h, tissue Plasma, dose level Control
[20] = 0 mg/kg, 6 h, tissue Plasma, dose level Control
[21] = 0 mg/kg, 9 h, tissue Plasma, dose level Control
[22] = 0 mg/kg, 24 h, tissue Plasma, dose level Control
[23] = 300 mg/kg, 6 h, tissue Plasma, dose level Middle
[24] = 300 mg/kg, 24 h, tissue Plasma, dose level Middle
[25] = 10 mg/kg, 3 h, tissue Plasma, dose level Low

SMILES	A/G (Rattus norvegicus [1]; [3])	A/G (Rattus norvegicus [1]; [4])	A/G (Rattus norvegicus [1]; [5])	A/G (Rattus norvegicus [1]; [6])	A/G (Rattus norvegicus [1]; [7])	A/G (Rattus norvegicus [1]; [8])	A/G (Rattus norvegicus [1]; [9])	A/G (Rattus norvegicus [1]; [10])	A/G (Rattus norvegicus [1]; [11])	A/G (Rattus norvegicus [1]; [12])	A/G (Rattus norvegicus [1]; [13])	A/G (Rattus norvegicus [1]; [14])	A/G (Rattus norvegicus [1]; [15])	A/G (Rattus norvegicus [1]; [16])	A/G (Rattus norvegicus [1]; [17])	A/G (Rattus norvegicus [1]; [18])	A/G (Rattus norvegicus [2]; [19])	A/G (Rattus norvegicus [2]; [20])	A/G (Rattus norvegicus [2]; [21])	A/G (Rattus norvegicus [2]; [22])	also measured
CN(C)CCC=C1c2ccccc2COc2ccccc21 [DOXEPIN]	0.9	0.9	0.8	0.8	0.9	0.8	0.8	0.8	0.9	0.9	0.8	0.8	0.9	0.8	0.8	0.9	0.9	0.9	0.9	0.8	Cl (Rattus norvegicus [1]; [4]): 105 meq/L; LIVER (Rattus norvegicus [1]; 10 mg/kg, 72 h, tissue Liver, dose level Low, time 3 day): 10.5 g; Ca (Rattus norvegicus [1]; [10]): 10.5 mg/dL; Ca (Rattus norvegicus [1]; [18]): 10.5 mg/dL; Cl (Rattus norvegicus [2]; [22]): 105 meq/L; A/G (Rattus norvegicus [2]; 100 mg/kg, 3 h, tissue Plasma, dose level Low): 0.8; A/G (Rattus norvegicus [2]; 100 mg/kg, 6 h, tissue Plasma, dose level Low): 0.9; A/G (Rattus norvegicus [2]; 100 mg/kg, 9 h, tissue Plasma, dose level Low): 0.9; A/G (Rattus norvegicus [2]; 100 mg/kg, 24 h, tissue Plasma, dose level Low): 0.9; A/G (Rattus norvegicus [2]; 300 mg/kg, 3 h, tissue Plasma, dose level Middle): 0.9; A/G (Rattus norvegicus [2]; [23]): 0.9; Ca (Rattus norvegicus [2]; [23]): 10.5 mg/dL; A/G (Rattus norvegicus [2]; 300 mg/kg, 9 h, tissue Plasma, dose level Middle): 0.9; PT (Rattus norvegicus [2]; 300 mg/kg, 24 h, tissue Blood, dose level Middle): 13.8 s; A/G (Rattus norvegicus [2]; [24]): 0.9; BUN (Rattus norvegicus [2]; [24]): 13.8 mg/dL; Ca (Rattus norvegicus [2]; [24]): 10.5 mg/dL
CSc1ccc2c(c1)N(CCC1CCCCN1C)c1ccccc1S2 (stereo not given) [THIORIDAZINE]	2.4	2.1	1.8	1.8	1.9	2.1	1.9	1.9	2.2	2.1	2	1.9	2.1	2	1.9	1.9	2.3	2.2	2.5	2.2	A/G (Rattus norvegicus [2]; [25]): 2.4; Cl (Rattus norvegicus [2]; [25]): 103.8 meq/L; A/G (Rattus norvegicus [2]; 10 mg/kg, 6 h, tissue Plasma, dose level Low): 2.2; A/G (Rattus norvegicus [2]; 10 mg/kg, 9 h, tissue Plasma, dose level Low): 2.4; A/G (Rattus norvegicus [2]; 10 mg/kg, 24 h, tissue Plasma, dose level Low): 2.4; A/G (Rattus norvegicus [2]; 30 mg/kg, 3 h, tissue Plasma, dose level Middle): 2.4; A/G (Rattus norvegicus [2]; 30 mg/kg, 6 h, tissue Plasma, dose level Middle): 2.3; A/G (Rattus norvegicus [2]; 30 mg/kg, 9 h, tissue Plasma, dose level Middle): 2; A/G (Rattus norvegicus [2]; 30 mg/kg, 24 h, tissue Plasma, dose level Middle): 2.1; A/G (Rattus norvegicus [2]; 100 mg/kg, 3 h, tissue Plasma, dose level High): 2.2; A/G (Rattus norvegicus [2]; 100 mg/kg, 6 h, tissue Plasma, dose level High): 2.2; A/G (Rattus norvegicus [2]; 100 mg/kg, 9 h, tissue Plasma, dose level High): 2.2; A/G (Rattus norvegicus [2]; 100 mg/kg, 24 h, tissue Plasma, dose level High): 2.3
